Tests used:
[1] = biological target: EGFR phosphorylation (pEGFR) in CUTO14 cells (Homo sapiens, UniProt P00533, INS769ASV); experiment: EGFR phosphorylation (pEGFR) AlphaLISA in CUTO14 cells; settings: read-out: CUTO14 IC50 (pEGFR), 2 hours
[2] = biological target: EGFR exon 20 NPG Ins D770_N771 (Homo sapiens, UniProt P00533, INS770NPG); experiment: Ba/F3 cell viability (CellTiter-Glo), EGFR exon 20 NPG insertion; settings: read-out: BaF3 NPG IC50, Ba/F3 cells expressing EGFR exon 20 NPG Ins D770_N771, 72 hours
[3] = biological target: EGFR exon 20 SVD Ins D770_N771 (Homo sapiens, UniProt P00533, INS770SVD); experiment: Ba/F3 cell viability (CellTiter-Glo), EGFR exon 20 SVD insertion; settings: read-out: BaF3 SVD IC50, Ba/F3 cells expressing EGFR exon 20 SVD Ins D770_N771, 72 hours
[4] = biological target: EGFR exon 20 ASV Ins V769_D770 (Homo sapiens, UniProt P00533, INS769ASV); experiment: Ba/F3 cell viability (CellTiter-Glo), EGFR exon 20 ASV insertion; settings: read-out: BaF3 ASV IC50, Ba/F3 cells expressing EGFR exon 20 ASV Ins V769_D770, 72 hours
EGFR WT = EGFR WT (Homo sapiens, UniProt P00533); experiment: Ba/F3 cell viability (CellTiter-Glo), EGFR WT; settings: read-out: BaF3 WT IC50, Ba/F3 cells expressing EGFR WT, supplemental EGF, 72 hours

Chains of the proteins cited; added tags and fusions are not shown. A line that says so, or that is headed by a name, gives the form on record, which may keep a tag or linker. Residues count along the entry.
UniProt P00533, with tags, fused parts or gaps INS769ASV: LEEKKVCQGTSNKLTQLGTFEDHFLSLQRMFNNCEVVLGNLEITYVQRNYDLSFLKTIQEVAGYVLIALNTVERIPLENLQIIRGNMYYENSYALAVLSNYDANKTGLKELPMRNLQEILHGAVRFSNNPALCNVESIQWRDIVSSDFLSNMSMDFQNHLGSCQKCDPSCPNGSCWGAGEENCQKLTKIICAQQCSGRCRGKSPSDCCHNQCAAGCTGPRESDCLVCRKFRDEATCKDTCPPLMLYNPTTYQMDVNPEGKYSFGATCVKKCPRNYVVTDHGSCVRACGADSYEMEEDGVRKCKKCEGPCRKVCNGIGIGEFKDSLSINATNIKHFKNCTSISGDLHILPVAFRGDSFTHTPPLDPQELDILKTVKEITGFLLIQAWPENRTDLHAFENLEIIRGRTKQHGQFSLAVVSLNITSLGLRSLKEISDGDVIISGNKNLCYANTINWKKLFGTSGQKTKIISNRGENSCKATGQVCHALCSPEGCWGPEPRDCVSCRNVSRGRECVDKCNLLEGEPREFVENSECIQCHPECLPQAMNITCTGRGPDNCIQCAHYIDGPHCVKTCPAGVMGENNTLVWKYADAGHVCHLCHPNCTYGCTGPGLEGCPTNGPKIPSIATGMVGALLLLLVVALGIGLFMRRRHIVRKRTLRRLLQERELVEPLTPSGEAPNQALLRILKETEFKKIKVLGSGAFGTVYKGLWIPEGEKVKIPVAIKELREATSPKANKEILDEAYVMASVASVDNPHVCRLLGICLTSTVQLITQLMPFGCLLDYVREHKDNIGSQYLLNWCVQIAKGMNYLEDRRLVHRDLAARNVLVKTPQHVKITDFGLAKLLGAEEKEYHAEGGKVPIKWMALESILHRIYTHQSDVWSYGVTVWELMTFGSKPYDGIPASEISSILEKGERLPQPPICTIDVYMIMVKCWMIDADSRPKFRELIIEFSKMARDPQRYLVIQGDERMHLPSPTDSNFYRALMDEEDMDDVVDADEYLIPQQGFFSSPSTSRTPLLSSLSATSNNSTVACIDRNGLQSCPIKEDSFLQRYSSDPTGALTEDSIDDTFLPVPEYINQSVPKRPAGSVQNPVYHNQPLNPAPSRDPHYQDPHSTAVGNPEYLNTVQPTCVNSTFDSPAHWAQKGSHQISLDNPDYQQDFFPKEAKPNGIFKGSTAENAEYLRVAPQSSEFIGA
UniProt P00533, 25-1210 limits assumed: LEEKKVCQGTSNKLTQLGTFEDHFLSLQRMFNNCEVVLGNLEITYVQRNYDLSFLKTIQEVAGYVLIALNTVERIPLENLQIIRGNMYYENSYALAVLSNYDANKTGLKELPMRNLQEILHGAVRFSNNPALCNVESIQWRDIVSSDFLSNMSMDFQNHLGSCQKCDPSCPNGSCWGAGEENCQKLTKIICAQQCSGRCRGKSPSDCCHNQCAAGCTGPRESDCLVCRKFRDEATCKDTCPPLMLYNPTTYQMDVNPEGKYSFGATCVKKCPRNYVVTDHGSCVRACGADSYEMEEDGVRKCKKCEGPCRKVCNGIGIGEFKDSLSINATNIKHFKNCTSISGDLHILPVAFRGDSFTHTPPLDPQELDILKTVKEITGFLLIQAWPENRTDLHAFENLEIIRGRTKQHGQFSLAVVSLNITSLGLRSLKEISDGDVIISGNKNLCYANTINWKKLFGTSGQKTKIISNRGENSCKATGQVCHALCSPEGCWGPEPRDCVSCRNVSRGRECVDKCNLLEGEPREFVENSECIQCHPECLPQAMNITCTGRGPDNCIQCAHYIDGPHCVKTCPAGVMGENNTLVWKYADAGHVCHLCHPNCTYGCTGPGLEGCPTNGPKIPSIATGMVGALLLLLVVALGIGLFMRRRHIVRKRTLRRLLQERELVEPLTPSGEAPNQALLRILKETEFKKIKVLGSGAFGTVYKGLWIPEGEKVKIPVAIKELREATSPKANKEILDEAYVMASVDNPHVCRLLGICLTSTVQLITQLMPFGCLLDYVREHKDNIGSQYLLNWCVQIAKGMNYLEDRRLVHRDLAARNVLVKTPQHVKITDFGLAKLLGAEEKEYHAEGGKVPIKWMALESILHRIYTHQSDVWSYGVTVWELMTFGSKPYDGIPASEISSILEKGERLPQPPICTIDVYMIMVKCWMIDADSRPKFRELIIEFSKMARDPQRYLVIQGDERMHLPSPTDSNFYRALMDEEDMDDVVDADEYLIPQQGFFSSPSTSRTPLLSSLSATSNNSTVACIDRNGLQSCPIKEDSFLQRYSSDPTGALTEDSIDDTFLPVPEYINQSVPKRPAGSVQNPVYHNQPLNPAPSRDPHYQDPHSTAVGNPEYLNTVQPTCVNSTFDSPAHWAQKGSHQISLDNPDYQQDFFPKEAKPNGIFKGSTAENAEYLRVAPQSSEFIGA
UniProt P00533, with tags, fused parts or gaps INS770NPG limits assumed: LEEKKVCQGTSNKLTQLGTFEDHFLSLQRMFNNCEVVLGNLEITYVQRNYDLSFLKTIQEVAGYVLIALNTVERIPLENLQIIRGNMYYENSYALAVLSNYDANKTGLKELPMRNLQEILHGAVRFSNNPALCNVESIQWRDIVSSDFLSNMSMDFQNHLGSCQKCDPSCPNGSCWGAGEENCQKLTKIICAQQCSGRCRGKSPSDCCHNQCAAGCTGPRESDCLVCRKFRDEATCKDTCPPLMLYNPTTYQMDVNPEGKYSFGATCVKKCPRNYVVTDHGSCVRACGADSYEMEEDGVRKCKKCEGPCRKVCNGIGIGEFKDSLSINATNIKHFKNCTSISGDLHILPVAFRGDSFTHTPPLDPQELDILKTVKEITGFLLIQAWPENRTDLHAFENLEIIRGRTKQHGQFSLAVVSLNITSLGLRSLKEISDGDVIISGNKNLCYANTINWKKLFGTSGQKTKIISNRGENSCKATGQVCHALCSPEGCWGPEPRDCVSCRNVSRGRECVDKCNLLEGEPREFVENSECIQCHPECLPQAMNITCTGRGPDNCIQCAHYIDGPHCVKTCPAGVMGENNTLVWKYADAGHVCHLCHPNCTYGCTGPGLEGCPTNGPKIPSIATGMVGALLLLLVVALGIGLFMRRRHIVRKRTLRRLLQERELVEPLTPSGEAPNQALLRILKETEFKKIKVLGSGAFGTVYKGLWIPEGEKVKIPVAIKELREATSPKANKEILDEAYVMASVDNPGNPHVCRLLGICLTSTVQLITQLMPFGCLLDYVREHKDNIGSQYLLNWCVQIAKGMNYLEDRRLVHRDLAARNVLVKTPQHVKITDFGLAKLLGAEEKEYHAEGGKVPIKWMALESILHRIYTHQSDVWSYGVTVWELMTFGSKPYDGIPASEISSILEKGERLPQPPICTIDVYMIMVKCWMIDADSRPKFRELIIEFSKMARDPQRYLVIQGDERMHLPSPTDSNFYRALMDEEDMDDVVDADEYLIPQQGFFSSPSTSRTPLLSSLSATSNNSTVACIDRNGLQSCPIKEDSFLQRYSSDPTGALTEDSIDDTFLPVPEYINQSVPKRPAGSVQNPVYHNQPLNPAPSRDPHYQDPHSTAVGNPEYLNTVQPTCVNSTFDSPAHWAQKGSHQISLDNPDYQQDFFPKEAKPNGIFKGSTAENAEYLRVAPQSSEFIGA
UniProt P00533, with tags, fused parts or gaps INS770SVD limits assumed: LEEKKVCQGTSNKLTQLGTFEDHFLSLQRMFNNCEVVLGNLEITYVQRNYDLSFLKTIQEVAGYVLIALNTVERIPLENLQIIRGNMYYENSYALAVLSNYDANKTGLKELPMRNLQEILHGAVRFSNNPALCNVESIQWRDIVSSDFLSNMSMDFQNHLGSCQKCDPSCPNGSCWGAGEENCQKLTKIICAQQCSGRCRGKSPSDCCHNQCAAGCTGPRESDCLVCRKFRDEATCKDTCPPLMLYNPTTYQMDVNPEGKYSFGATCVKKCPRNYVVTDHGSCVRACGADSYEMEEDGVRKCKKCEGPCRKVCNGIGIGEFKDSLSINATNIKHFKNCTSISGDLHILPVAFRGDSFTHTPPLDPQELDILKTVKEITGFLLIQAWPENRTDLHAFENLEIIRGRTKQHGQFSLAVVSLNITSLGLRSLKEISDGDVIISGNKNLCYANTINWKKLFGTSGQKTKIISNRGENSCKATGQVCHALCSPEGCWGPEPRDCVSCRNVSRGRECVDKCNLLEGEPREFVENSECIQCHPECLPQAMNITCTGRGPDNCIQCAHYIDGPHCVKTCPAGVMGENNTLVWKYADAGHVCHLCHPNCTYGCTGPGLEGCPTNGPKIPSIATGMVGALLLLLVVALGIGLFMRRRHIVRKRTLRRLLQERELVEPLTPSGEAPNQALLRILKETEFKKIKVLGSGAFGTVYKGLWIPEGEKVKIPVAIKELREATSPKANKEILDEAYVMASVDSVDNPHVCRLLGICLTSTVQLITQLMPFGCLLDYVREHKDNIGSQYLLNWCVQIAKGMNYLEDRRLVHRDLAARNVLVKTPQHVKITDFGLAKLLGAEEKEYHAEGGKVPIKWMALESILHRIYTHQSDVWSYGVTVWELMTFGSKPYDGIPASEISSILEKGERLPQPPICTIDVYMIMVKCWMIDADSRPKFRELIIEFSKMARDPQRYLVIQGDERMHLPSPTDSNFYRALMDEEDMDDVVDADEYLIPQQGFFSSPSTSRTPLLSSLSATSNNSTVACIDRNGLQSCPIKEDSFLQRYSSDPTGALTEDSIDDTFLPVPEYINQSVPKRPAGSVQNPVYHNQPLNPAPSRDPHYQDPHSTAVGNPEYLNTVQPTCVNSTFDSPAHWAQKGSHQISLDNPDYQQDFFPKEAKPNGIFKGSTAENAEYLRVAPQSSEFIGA

- IC50 [1]: < 100 nM
SMILES: COc1c(Cl)cccc1Nc1c(-c2ccncc2C#C[C@]2(C)CCCN2C(=O)/C=C/CN(C)C)[nH]c2cc[nH]c(=O)c12
- IC50 [2]: < 100 nM
- IC50 [3]: 100 to 1000 nM
- IC50 [4]: 100 to 1000 nM
- IC50 (EGFR WT): > 1000 nM
